Article PMC10967972, “Different Coactivator Recruitment to Human PPARα/δ/γ Ligand-Binding Domains by Eight PPAR Agonists to Treat Nonalcoholic Fatty Liver Disease” (Biomedicines, 2024)
pEC50: −log10 of the molar value. Read-outs that look alike come from different tables or passages of the source.

By UniProt entry, the sequences of proteins in these tests, tags left out. Residues count along the entry.
UniProt P37231, 231-505: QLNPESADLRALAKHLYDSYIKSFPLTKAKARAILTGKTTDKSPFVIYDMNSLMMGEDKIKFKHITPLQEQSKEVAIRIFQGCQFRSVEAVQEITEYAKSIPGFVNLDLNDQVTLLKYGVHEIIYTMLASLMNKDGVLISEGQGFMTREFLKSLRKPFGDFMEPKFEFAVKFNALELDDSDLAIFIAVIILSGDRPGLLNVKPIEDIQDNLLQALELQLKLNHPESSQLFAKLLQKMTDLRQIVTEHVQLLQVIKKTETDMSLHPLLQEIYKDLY

Molecular target: T1, human PPARγ-LBD (Homo sapiens, UniProt P37231)
T1 construct: PPARγ-LBD (AAs 203–477 in isoform 1); made in house
Assay: TR-FRET coactivator recruitment assay, PPARγ-LBD
Assay type: biochemical
Settings: Buffer A

pEC50 (CBP peptide recruitment, read-out: PPARγ CBP EC50): 7.31
pEC50 (PGC1α peptide recruitment, read-out: PPARγ PGC1α EC50): 7.12
pEC50 (SRC1 peptide recruitment, read-out: PPARγ SRC1 EC50): 7.04
pEC50 (TRAP220 peptide recruitment, read-out: PPARγ TRAP220 EC50): 7.30
pEC50 (range over PGC1α, CBP, SRC1, TRAP220, read-out: EC50 values on the four coactivators, PPARγ): 7.04 to 7.31
Substance: GW1929
